Assay results: US20200010910A1, “Cytotoxic Chemotherapy-Based Predictive Assays for Acute Myeloid Leukemia” (The Regents of The University of California, priority 2017, published 2020)

What was measured:
[1] = sterile solution in water, upon freezing
[2] = safety of radiolabeled microdose in patients; conditions: IV microdose, 1% of the therapeutic dose

In the case of `O=C1[O][Pt]2([NH][C@@H]3CCCC[C@H]3[NH]2)[O]C1=O` [oxaliplatin], the stability to freeze/thaw [1] is reported as “no observed precipitation” and the “tolerability of radiolabeled microdose” value [2] is reported as “well tolerated”.
